Test results from patent publication US7384914B2, “Night-time oral insulin therapy” (Emisphere Technologies, Inc., priority 2003, dated 2008).

Legend:
[1] = Oral insulin absorption in rats at varying doses of insulin and 4-CNAB (serum insulin); details: oral aqueous solution, insulin alone 13 Units/kg
[2] = monkeys, oral, toxicology studies with 4-CNAB

With insulin the “increase in serum insulin levels” value [1] was “did not result in any significant increases” and the “absolute bioavailability of insulin” value [2] was at most 1%.
